conditions: in vivo

SMILES | Class(High: HIA value ≥0.7; Low: HIA value < 0.7)
Cc1nc2n(c(=O)c1CCN1CCC(c3noc4cc(F)ccc34)CC1)CCCC2 [Risperidone] | High (key: High: HIA value ≥0.7; Low: HIA value < 0.7)

conditions: in vivo; cited from earlier work

SMILES | HIA(Human Intestinal Absorption)
CCOC(=O)[C@H](CCc1ccccc1)N[C@@H](C)C(=O)N1[C@H](C(=O)O)C[C@H]2CCCC[C@@H]21 [Trandolapril] | 0.5
CCN(CC)CCNC(=O)c1cc(Cl)c(N)cc1OC [Metoclopramide] | 0.88
Cc1nc2n(c(=O)c1CCN1CCC(c3noc4cc(F)ccc34)CC1)CCCC2 [Risperidone] | 0.97
Nc1cc(N2CCCCC2)nc(N)[n+]1[O-] [Minoxidil] | 0.98
ClC(Cl)Cl [Chloroform] | 1
CCOc1ccc2c3c1O[C@H]1[C@@H](O)C=C[C@H]4[C@@H](C2)N(C)CC[C@@]341 [Ethylmorphine] | 0.77
CCN(CC)CCOC(=O)C(Cc1cccc2ccccc12)CC1CCCO1 (centres unmarked) [Nafronyl] | 1
